Reference: BindingDB's records for 2542556

Chains of the proteins cited; added tags and fusions are not shown.
UniProt P41143, whole entry: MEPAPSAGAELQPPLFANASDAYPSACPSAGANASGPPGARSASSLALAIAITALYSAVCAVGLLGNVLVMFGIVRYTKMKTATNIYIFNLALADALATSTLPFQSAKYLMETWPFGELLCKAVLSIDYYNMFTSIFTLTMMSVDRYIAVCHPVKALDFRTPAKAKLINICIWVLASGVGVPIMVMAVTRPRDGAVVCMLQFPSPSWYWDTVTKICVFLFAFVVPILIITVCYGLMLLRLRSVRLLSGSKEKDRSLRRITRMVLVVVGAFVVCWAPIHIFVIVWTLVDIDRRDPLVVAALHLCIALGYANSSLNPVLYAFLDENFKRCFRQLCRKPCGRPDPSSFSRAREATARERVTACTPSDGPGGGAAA

The compounds below were run against Delta-type opioid receptor (Homo sapiens, UniProt P41143) (assay: ASSAY_NAME: ChEBML_146883 DESCRIPTION: Inhibitory activity against Opioid receptor delta 1 of guinea pig was determined by using [3H]DADLE radioligand).

Row | Compound | IC50
1 | CN1CCC[C@@]12CCCC[C@@H]2NC(=O)c1ccc(Br)cc1 | > 10 µM
2 | CN(C(=O)c1ccc(Cl)c(Cl)c1)[C@H]1CCCC[C@@]12CCCN2C | > 10 µM
3 | CN1CCC[C@@]12CCCC[C@@H]2NC(=O)c1ccc(Cl)c(Cl)c1 | > 10 µM
4 | CN(C(=O)c1ccc(Br)c(Br)c1)[C@H]1CCCC[C@@]12CCCN2C | 2.3 µM
5 | Cc1ccc(C(=O)N(C)[C@H]2CCCC[C@@]23CCCN3C)cc1 | > 10 µM
6 | Cc1cc(Br)ccc1C(=O)N(C)[C@H]1CCCC[C@@]12CCCN2C | > 10 µM
7 | CC(C)CN(C(=O)c1ccc(Br)cc1)[C@H]1CCCC[C@@]12CCCN2C | > 10 µM
8 | CN1CCC[C@@]12CCCC[C@@H]2NC(=O)c1ccc(F)cc1 | > 10 µM
9 | CN1CCC[C@@]12CCCC[C@@H]2NC(=O)c1cccc(Br)c1 | > 10 µM
10 | CN1CCC[C@@]12CCCC[C@@H]2N(CC1CC1)C(=O)c1ccc(Br)cc1 | 6.3 µM
11 | COc1ccc(C(=O)N[C@H]2CCCC[C@@]23CCCN3C)cc1 | > 10 µM
12 | CN(C(=O)c1ccc(C(F)(F)F)cc1)[C@H]1CCCC[C@@]12CCCN2C | > 10 µM
13 | CN(C(=O)c1ccc(Br)cc1)[C@H]1CCCC[C@@]12CCCN2C | > 10 µM
14 | CN1CCC[C@@]12CCCC[C@@H]2NC(=O)c1ccc(Cl)cc1 | > 10 µM
15 | CN(C(=O)c1ccc(Br)cc1Cl)[C@H]1CCCC[C@@]12CCCN2C | 9 µM
16 | CN1CCC[C@@]12CCCC[C@@H]2NC(=O)c1ccccc1Br | > 10 µM
